{"sequences": {"note": "The chains behind the UniProt entries cited, without tags or fusion partners.", "UniProt P43220, whole entry": "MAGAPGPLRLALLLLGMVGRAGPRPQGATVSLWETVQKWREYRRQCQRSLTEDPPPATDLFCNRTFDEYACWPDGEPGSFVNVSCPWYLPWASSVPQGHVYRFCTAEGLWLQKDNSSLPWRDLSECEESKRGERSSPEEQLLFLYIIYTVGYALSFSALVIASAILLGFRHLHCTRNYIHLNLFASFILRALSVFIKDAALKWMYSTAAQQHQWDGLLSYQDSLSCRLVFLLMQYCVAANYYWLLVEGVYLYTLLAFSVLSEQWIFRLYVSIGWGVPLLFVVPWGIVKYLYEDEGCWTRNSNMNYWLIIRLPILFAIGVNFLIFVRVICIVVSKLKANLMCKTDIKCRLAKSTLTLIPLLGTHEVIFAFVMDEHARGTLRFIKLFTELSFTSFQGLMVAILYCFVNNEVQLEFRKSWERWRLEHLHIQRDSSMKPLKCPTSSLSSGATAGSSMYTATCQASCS"}, "source": "ChEMBL document CHEMBL6096721", "about": "“Discovery of Selenium-Containing Derivatives as Potent and Orally Bioavailable GLP-1R Agonists” (J Med Chem, 2025)", "biological_target": "Glucagon-like peptide 1 receptor (Homo sapiens, UniProt P43220)", "test": "Binding affinity to human GLP-1R assessed as association rate constant by SPR analysis", "settings": "filed as agonist", "data": [{"smiles": "N#Cc1ccc(COc2cccc(C3CCN(Cc4nc5ccc(C(=O)O)cc5n4C[C@@H]4CCO4)CC3)n2)c(F)c1", "values": [{"measurement": "Ka", "result": "3.49 10^3/M.s"}]}]}
